Measurements published in patent US20140120180A1, “METAL COMPOUNDS MIXED OR SULPHATED, AS PHOSPHATE BINDERS” (CYTOCHROMA DEVELOPMENT INC., priority 1997, published 2014).

Assay: Measurement of phosphate binding M4: 1 g in 25 ml 40 mmol l^-1 phosphate buffer, pH 3-8 (Examples 3 and 4)
Conditions: Table 10 (Example 4)

Percentage phosphate bound at pH 3 (pH 3): 2%
Percentage phosphate bound at pH 5 (pH 5): 7%
Percentage phosphate bound at pH 7 (pH 7): 47%
Percentage phosphate bound at pH 8 (pH 8): 55%
Substance: Anhydrous calcium sulphate [Anhydrous CaSO4]
